Results published in US4550116A, “Piperidine derivatives” (Fordonal, S.A., priority 1983, dated 1985).

System: histamine H1-receptor
Experiment: Antihistamine activity in anaesthetized rats (vasodepressor responses to histamine)
Assay type: in vivo, rat
Settings: 0.3 mg/kg i.v.; pentobarbitone anaesthetized rats
Method: B. Antihistamine activity in anaesthetized rats
Test compounds were administered to pentobarbitone anaesthetized rats at 0.3 mg/kg i.v. following stable, submaximal, vasodepressor responses to histamine.

For `CC(C)(C)c1ccc(C(O)CCCN2CCC(C(O)(c3ccccc3)c3ccccc3)CC2)cc1` (stereo not drawn) [TERFENADINE, α-[4-(1,1-dimethylethyl)phenyl]-4-(hydroxydiphenylmethyl)-1-piperidinebutanol, reference compound], the “TEST B ANT[…] RAT (inhibition of the histamine response)” value was “++ (25-50%)”.
